From patent publication US7176316B2, “Amino-piperidine derivatives” (Hoffmann-La Roche Inc., priority 2003, dated 2007)
Only a part of the results on these compounds is given; other tests are left out.

By UniProt entry, the sequences of proteins in these tests, tags left out. Residues count along the entry.
UniProt P48067, 1-652 isoform 3: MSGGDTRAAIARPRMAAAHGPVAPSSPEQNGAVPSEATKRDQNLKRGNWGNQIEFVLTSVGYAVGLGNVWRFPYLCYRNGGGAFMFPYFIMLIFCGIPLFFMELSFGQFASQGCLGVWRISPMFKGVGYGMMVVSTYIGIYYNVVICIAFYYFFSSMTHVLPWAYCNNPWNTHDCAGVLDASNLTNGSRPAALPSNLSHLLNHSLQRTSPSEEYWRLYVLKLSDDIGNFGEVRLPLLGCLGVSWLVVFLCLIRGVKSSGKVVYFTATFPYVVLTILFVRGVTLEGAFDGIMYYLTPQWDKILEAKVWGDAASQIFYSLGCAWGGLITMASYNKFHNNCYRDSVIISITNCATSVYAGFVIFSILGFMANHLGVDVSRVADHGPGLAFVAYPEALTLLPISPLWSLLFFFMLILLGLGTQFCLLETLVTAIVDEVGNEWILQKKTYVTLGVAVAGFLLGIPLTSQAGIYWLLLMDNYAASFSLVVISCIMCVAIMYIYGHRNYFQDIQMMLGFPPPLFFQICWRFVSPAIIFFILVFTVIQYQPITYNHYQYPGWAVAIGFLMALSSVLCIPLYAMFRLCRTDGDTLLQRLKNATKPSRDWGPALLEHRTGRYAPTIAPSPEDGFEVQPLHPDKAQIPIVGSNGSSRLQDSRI

Target: hGlyT-1b (Homo sapiens, UniProt P48067)
Test: Glycine uptake inhibition assay (hGlyT-1b), [3H]-glycine uptake in transfected CHO cells
Settings: read-out: IC50 (μM) at GlyT-1; CHO cells stably transfected with hGlyT-1b cDNA; [3H]-glycine 60 nM and 25 μM non-radioactive glycine; 30 min at 22–24° C.

O=C(c1cccc(C(F)(F)F)c1)N(c1ccc(Cl)cc1)C1CCN([C@@H]2CCCC[C@@H]2c2ccccc2)CC1 (racemic)
IC50: 0.098 µM
